Drawing on patent publication US7557144B1, “Modulation of protein expression using carbocyclic aryl alkenoic acid derivatives” (The Johns Hopkins University, priority 2000, dated 2009), this text covers Hsc70 immunoreactivity for 1 molecule.

The subject of this test is Hsc70. The test can be described thus: Hsc70 immunoblot of IB3-1 whole cell lysates. The note with it: IB3-1 cells, 37° C., 2 days; butyrate 1 mM, glycerol 1 M, phenylacetate 1 mM, G418 0.2 mg/ml.

For the molecule `CCCC(=O)O` [butyrate, butyric acid], the Hsc70 immunoreactivity result is listed as “reduction”.
